pIC50: −log10 of the molar value.
Legend:
SK-MEL-5 melanoma cells = experiment: treatment-sensitization activity assay with PLX-4720 on SK-MEL-5 cells; settings: combination with PLX-4720 (10 μM), SK-MEL-5 cells; additional decrease in relative viability as compared to single treatment with PLX-4720
From the text: Sensitization through a compound to other treatments can be assessed by investigating the growth behaviour of cancer cells being not or only poorly responsive to said other treatments in the presence of the sensitizing compound in a combination treatment. The sensitization activity of a compound falling under general formula (I) was investigated in a combination treatment with the B-Raf-V600E inhibitor PLX-4720 (MedChemExpress, #HY-51424) in a viability assay on PLX-4720-poorly responsive SK-MEL-5 melanoma cells harbouring a BRAF V600E mutation. SK-MEL-5 cells, obtainable from the American Type Culture Collection (ATCC) under the accession number ATCC-HTB-70, were cultivated in EMEM medium (ATCC, #30-2003) containing 10% fetal bovine serum (Fisher Scientific, Gibco™ #A31608) at 37 °C and 5% CO2. The viability assay was performed according to the protocol as described above using alamarBlue® (Bio-Rad Serotec GmbH, BUF012B). To this end, SK-MEL-5 cells were seeded into 96-well plates (CORNING #3598) suitable for fluorescence assays at a cell number of 4'000 cells per well containing 10 μL per well of 10× compound working solutions or the empty carrier DMSO as control. The cells were treated with compounds at final concentrations of 1 μM for the compound of formula (I) and 10UM for PLX-4720. […] Relative viability values were calculated from the fluorescence intensities as described above. […]

REC-1 cells = experiment: alamarBlue proliferation assay with REC-1 cells; settings: read-out: Activity on REC-1 (IC50), day 5
Experimental: These hyperproliferative processes can be benign or malignant and include hyperplasia, neoplasia, cancer and pre-cancerous lesions, and metastases. […] To this end, according cells were seeded into 96-well plates (CORNING #3598) suitable for fluorescence assays at following initial cell numbers: 1000 cells per well for HPEK; 3000 cells per well for MDA-MB-231, 8000 cells per well for ZR-75-30, 1500 cells per well for HCC-1395, 1500 cells per well for HCC-1937, 3000 cells per well for T-47D, 1500 cells per well for JURKAT, 5000 cells per well for RPMI-8402, 9000 cells per well for LOUCY, 1500 cells per well for TANQUE, 9000 cells per well for REC-1, 1000 cells per well for HL-60, 1000 cells per well for NB-4, 9000 cells per well for TT, 2000 cells per well for HeLa, 2000 cells per well for 23132/87, 9000 cells per well for SW-948, 700 cells per well for HCT-116, 1500 cells per well for BHY, 700 cells per well for A-431, 1500 cells per well for HEP-G2, 500 cells per well for NCI-H460, 1000 cells per well for A-549, 1500 cells per well for PANC-1, 2500 cells per well for U-87 MG, 700 cells per well for A-375, 1500 cells per well for RVH-421, 2000 cells per well for SW-1353, 500 cells per well for C2C12, 500 cells per well for LL/2, and 3000 cells per well for CF21.T. In a volume of 90 μL per well of culture medium the cells were treated with compounds at indicated final concentrations by adding 10 μL per well of 10× compound working solutions from 1:100 pre-diluted 1000× compound DMSO stock-solutions in H2O (Water For Injection, WFI, Fisher Scientific, Gibco™ #A12873) or with the empty carrier DMSO (AppliChem, #A3672) at 0.1% v/v as control yielding a final volume of 100 μL per well. […] The readout was taken with a multi-well plate-reader (Tecan Spark®) in the fluorescence mode with applying a filter for excitation at 560 nm (band width 10 nm) and for emission at 590 nm (band width 10 nm). […]

O=C(c1ccc(Oc2ccc(C3CCC4(CC3)OCCO4)cc2CO)cc1)N1CCN(Cc2ccc(Cl)cc2)CC1
Activity as treatment enhancer: viability decrease (SK-MEL-5 melanoma cells): viability decrease >50%
pIC50 (REC-1 cells): ≥ 6.70

O=C(c1ccc(Oc2ccc(C3CCC4(CCCC4)CC3)cc2CO)cc1)N1CCN(Cc2ccccc2)CC1
pIC50 (REC-1 cells): ≥ 5.30

Source: patent US20260384421A1, “NOVEL COMPOUNDS THAT CAN BE USED AS THERAPEUTIC AGENTS” (published 2026)
